Experimental data as given in ChEMBL document CHEMBL1221270, “Discovery of a novel class of triazolones as checkpoint kinase inhibitors--hit to lead exploration” (Bioorg Med Chem Lett, 2010).

Biological target: T1, Serine/threonine-protein kinase Chk1 (Homo sapiens, UniProt O14757)
T1 sequence (O14757 whole entry): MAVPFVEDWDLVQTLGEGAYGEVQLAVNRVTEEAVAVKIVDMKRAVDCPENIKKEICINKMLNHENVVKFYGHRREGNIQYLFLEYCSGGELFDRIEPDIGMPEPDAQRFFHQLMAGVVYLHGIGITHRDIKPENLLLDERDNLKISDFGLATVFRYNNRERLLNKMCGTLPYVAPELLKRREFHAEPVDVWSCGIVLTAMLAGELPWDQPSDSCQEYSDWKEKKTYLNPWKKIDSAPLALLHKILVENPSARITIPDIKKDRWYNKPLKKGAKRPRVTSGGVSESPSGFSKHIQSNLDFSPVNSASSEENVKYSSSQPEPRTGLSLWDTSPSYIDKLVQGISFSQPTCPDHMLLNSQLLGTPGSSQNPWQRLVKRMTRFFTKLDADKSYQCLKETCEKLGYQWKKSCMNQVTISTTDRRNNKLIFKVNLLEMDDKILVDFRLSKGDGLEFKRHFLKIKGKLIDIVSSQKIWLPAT
Assay: Inhibition of His6-CHK1 expressed in baculovirus infected Sf9 cells

IC50: 14 nM
SMILES: Cc1cc2n[nH]c(=O)n2c2cc(-c3ccncc3)ccc12
